Measurements published in patent US20110251230A1, “THERAPEUTICS FOR NEUROLOGICAL DISORDERS” (UNIVERSITY OF SHEFFIELD, priority 2008, published 2011).

What was measured:
[1] = test system: NSC34 mouse motor neuronal cells
[2] = test system: 1321N1 (human) astrocytic line

3-alpha-hydroxygedinin
Lowest dose with toxicity [1]: 10 µM
Lowest dose with toxicity [2]: none
Lowest dose with toxicity (C6 (rat) astrocytic line): none
